Source: US9550792B2, “Polycyclic substituted pyrazole kinase activity inhibitors and use thereof” (priority 2013, dated 2017)

By UniProt entry, the sequences of proteins in these tests, tags left out. Residues count along the entry.
UniProt P50750, 19-315 limits assumed: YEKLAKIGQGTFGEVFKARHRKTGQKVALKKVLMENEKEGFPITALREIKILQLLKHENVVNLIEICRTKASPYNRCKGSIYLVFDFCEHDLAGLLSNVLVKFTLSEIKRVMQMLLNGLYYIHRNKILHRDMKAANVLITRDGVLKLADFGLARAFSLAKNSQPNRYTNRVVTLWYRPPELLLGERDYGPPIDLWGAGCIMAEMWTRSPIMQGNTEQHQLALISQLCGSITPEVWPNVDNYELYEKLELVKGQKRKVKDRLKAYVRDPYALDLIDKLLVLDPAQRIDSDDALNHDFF

Biological target: CDK9/cyclin K (Homo sapiens, UniProt P50750)
Assay: Kinase IC50, 33P labeled isotope method
Format: biochemical

Structure (SMILES): CN1CCN(Cc2ccc(NC(=O)c3n[nH]cc3Nc3ncnc4[nH]ccc34)cc2)CC1 [Compound I-11, 4-(4-(7H-pyrrolo[2,3-d]pyrimidinyl)amino)-N-(4-((4-methyl-1-piperazinyl)methyl)phenyl)-1H-3-pyrazolecarboxamide]
- IC50: 35 nM
